{"source": "patent US20140017673A1", "about": "“METHOD FOR ENUMERATING EUKARYOTIC CELL MICRONUCLEI WITH AN EMPHASIS ON SIMULTANEOUSLY ACQUIRING CYTOTOXICITY AND MODE OF ACTION INFORMATION” (priority 2012, published 2014)", "system": "TK6 cells"}
{"smiles": "COc1cc2c(c(OC)c1OC)-c1ccc(OC)c(=O)cc1[C@@H](NC(C)=O)CC2", "note": "[Colchicine]", "values": [{"measurement": "mode of genotoxic action from metaphase events, FIG. 3", "result": "aneugenicity"}, {"measurement": "proportion of metaphase events relative to negative control (mitotic index), FIG. 3", "result": "increased"}]}
